According to patent publication US20090306012A1, “THERAPEUTIC PROTOCOLS” (priority 2001, published 2009):

Assay: In vivo cytotoxicity (III), CMF±HA: overall survival time
Settings: mouse
Experimental: The overall survival time was calculated as the time (days or weeks) that the animal lived, after the commencement of treatment.

For “Cyclophosphamide/methotrexate/5-fluorouracil [CMF]”, the “Treatment toxicity (in words)” value was “very toxic”.
